Assay: Phase 1 crossover relative bioavailability study: plasma pharmacokinetics of midazolam, 1-hydroxymidazolam, ketamine and norketamine
Conditions: Treatment C: midazolam IV 3.5 mg, fasted
Method: PK analysis was performed using noncompartmental methods in Phoenix WinNonlin® (Version 8.1, Certara, L.P.) in conjunction with the internet-accessible implementation of the Pharsight® Knowledgebase Server™ (PKSO; Version 4.0.4, Certara, L.P). PKSO provides protected and structured storage, audit trails, and version control for study data, analyses, and related files, supporting 21 CFR Part 11 compliance. The analysis was performed in accordance with the Statistical Analysis Plan (Version 1.0, 5 Jan. 2021).
During the PK analysis, concentrations below the limit of quantitation (BLQ) up to the time of the first quantifiable concentration were treated as zero. Embedded (values between 2 quantifiable concentrations) and terminal BLQ concentrations were treated as “missing”. Calculation of the PK characteristics were based on actual elapsed times [h] (relative to time of dose).
All PK analyses were performed on the data from the PK Analysis Population. […] The ANOVA model included factors for sequence, subject within sequence, treatment, and period.

SMILES: Cc1ncc2n1-c1ccc(Cl)cc1C(c1ccccc1F)=NC2 [Midazolam, 8-chloro-6-(2-fluorophenyl)-1-methyl-4H-imidazo[1,5-a][1,4]benzodiazepine]
- Midazolam Tlast, mean: 23.4 h
